This passage reports Kd results from publication PMC8273886.

Chains of the proteins cited; added tags and fusions are not shown.
UniProt P33534, whole entry: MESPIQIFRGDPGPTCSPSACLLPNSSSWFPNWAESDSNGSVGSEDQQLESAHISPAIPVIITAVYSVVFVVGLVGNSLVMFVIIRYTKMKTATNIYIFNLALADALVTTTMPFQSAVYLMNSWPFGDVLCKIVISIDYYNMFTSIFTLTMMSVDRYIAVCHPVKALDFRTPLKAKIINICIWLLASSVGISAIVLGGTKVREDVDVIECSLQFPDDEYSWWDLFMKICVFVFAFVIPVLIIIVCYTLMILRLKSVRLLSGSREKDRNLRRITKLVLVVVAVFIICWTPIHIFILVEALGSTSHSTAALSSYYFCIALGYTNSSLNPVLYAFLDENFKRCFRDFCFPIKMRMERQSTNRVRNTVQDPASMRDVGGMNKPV
UniProt P42866, whole entry: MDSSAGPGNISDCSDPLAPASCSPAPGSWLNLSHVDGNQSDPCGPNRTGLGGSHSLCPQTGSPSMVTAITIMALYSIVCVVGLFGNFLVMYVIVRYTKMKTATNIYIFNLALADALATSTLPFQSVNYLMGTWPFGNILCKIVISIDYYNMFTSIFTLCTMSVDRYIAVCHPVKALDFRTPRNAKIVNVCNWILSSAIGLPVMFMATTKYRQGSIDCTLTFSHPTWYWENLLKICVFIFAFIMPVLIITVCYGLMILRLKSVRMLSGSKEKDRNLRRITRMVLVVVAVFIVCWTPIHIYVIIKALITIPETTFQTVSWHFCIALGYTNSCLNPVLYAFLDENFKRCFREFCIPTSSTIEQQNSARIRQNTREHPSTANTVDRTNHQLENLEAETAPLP

Test [1] addresses mouse KOR (Mus musculus, UniProt P33534). The experiment in a line: Saturation binding assay with [3H]-diprenorphine. The note with it: read-out: equilibrium dissociation constant Kd; HEK293 cells stably expressing mouse KOR, n = 2.
The target in test [2] is mouse μ-opioid receptor (MOR) (Mus musculus, UniProt P42866). The note with it: taken from the literature ref 19, 76; cited from earlier work.
Test [3] deals with mouse δ-opioid receptor (DOR) (Mus musculus, UniProt P32300). The note with it: taken from the literature ref 19, 76; cited from earlier work.

This is a selection: effects in other tests are not listed, and their absence says nothing.

Broadly, the Kd is the free concentration of one partner at which half of the binding sites on the other are occupied at equilibrium, for simple one-to-one binding. On to [^3H]-diprenorphine, for which the results for the Kd in test [1], in test [2] and in test [3] were 0.87 nM, 0.81 nM and 1.7 nM, respectively.
